Biological target: T1, ALPL (Homo sapiens, UniProt P05186)
T1 sequence (P05186 18-501): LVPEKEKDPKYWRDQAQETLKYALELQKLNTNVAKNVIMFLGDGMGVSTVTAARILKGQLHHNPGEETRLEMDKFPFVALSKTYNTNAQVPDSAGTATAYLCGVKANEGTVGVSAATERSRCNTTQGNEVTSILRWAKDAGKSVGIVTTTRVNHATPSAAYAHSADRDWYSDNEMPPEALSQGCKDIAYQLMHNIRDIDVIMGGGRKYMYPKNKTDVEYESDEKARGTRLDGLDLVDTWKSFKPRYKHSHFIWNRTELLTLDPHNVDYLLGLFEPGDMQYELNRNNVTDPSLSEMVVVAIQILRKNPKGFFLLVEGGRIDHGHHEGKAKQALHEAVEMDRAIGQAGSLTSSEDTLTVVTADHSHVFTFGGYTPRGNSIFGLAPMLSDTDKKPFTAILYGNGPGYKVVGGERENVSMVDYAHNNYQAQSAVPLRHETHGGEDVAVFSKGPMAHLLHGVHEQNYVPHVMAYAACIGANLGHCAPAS
Assay: Inhibition of TTM-002 transduction by small molecule ALPL inhibitors in HeLa cells expressing ALPL
Assay type: cell-based
Parameters: endogenous in cells; host or cells: HeLa
Settings: increasing inhibitor concentrations vs vehicle control

In the case of `COc1ccc(OC)c(S(=O)(=O)Nc2cnc3ccccc3c2)c1` [TNAPi, 2,5-Dimethoxy-N-(quinolin-3-yl)benzenesulfonamide], the “effect on TTM-002 transduction” value is reported as “significantly decreased TTM-002 transduction”.

— patent US20260250318A1, “COMPOSITIONS AND METHODS FOR CROSSING THE BLOOD BRAIN BARRIER” (VOYAGER THERAPEUTICS, INC., priority 2022, published 2026)
